Measurements taken from patent US20240025949A1, “Beta-Arrestin Effectors and Compositions and Methods of Use Thereof” (Trevena, Inc., priority 2021, published 2024).

Experiments:
human AT1R [1] = molecular target: T1, human AT1R (Homo sapiens, UniProt P30556); test: PathHunter β-arrestin-2 recruitment assay, human AT1R; assay type: cell-based; settings: PathHunter β-arrestin HEK293 cells, inactive = EC50 greater than 10 uM
T1 construct: ProLink (β-galactosidase enzyme-donor fragment, from the pCMV-ProLink vector)

human AT1R [2] = molecular target: T1, human AT1R; test: IP1 accumulation assay (IP-One Tb), human AT1R; assay type: cell-based; settings: cells expressing human AT1R, inactive = EC50 greater than 10 uM

CCCCC(=O)N(Cc1ccc(-c2ccccc2-c2nnn[nH]2)cc1)[C@H](C(=O)O)C(C)C [Valsartan, reference compound]
human AT1R b-arrestin2 EC50 (M) (human AT1R [1]): inactive
human AT1R IP One EC50 (M) (human AT1R [2]): inactive
